In patent US20070255041A1, “Bioengineered Vehicles for Targeted Nucleic Acid Delivery” (priority 2000, published 2007):

Legend:
[1] = tested on: plasmid DNA (pGL-control or pXL3031); experiment: Gel mobility shift analysis of complex formation with plasmid DNA; format: binding; details: 2.9 pmole (about 90 ng) conjugate, 200 ng plasmid DNA; FIG. 17
Protocol: The ability of the anti-erbB-2 C6ML3-9 sFv′-salmone protamine (SP) conjugates to complex with plasmid DNA was tested by a gel mobility shift analysis.
The DNA was added last, and the mixture incubated on ice for 1 to 1.5 hour (in the case of kinetics studies, incubation time was from 5 minutes to 60 minutes as indicated). 2 μl of loading buffer (50% glycerol in 1×TE with dye) was added to the 20 μl reaction. The reaction was electrophoresed on 0.8% agarose gel in 1×TAE, 150 V for about an hour at room temperature and stained with EtBr overnight.

SK-OV-3 cells = experiment: pGeneGrip Rhodamine/GFP plasmid delivery, fluorescent microscopy, erbB-2 positive cells; format: cell-based, human; details: SK-OV-3, 48 hour time point; FIG. 21
Source text: pGeneGrip Rhodamine/GFP plasmid (Gene Therapy Systems) was used as another reporter plasmid for studying C6.5 sFv′-SP and C6ML3-9 sFv′-SP-mediated gene delivery. In this case, plasmid DNA encoding green fluorescent protein (GFP) was labeled with rhodamine, which allows one to follow internalization of the plasmid DNA as well as the expression of GFP. This reporter facilitated evaluation of the gene delivery efficiency at both DNA and protein expression levels. The formation of protein/DNA complexes between either C6.5 sFv′-SP or C6ML3-9 sFv′-SP and pGeneGrip plasmid DNA were confirmed by gel mobility shift analysis (data not shown). SK-OV-3 and MCF-7 cells were incubated with the protein/DNA complexes and fixed at 6, 24, 48, and 72 hours post-incubation for fluorescent microscopy. FIG. 21 represents the data from the 48 hour time point. […] The rhodamine labeled DNA could be seen inside of SK-OV-3 cells at 24 hours (data not shown). However, the GFP gene expression, was very low, about 1-2% cells being GFP positive in the case of C6ML3-9 sFv′-SP-mediated delivery at 48 hours. It should be noted that, although low, GFP expression level still correlates with the amount of DNA inside of the cells (FIG. 21, compare C6.5 sFv′-SP-DNA with that C6ML3-9 sFv′-SP-DNA). […]

Substance: C6ML3-9 sFv′-SP: C6ML3-9 sFv′ coupled via Sulfo-SMCC at its C-terminal sulfhydryl to salmon protamine
- retardation of plasmid DNA band (gel shift) [1]: retardation of the plasmid DNA (200 ng) band was observed
- gene delivery efficiency at the DNA level (rhodamine-labeled plasmid) (SK-OV-3 cells): over 80%
